Literature values, collected in article PMC3419816 (Journal of molecular neuroscience : MN, 2012).

Tested on: epidermal growth factor receptor (EGFR)
Details: cited from earlier work

COc1cc2ncnc(Nc3ccc(F)c(Cl)c3)c2cc1OCCCN1CCOCC1 [gefitinib]
effect on PACAP-induced EGFR tyrosine phosphorylation: inhibited
